Assay results reported in patent US20220389057A1, “ENDOCYTOSIS ROUTING SEQUENCE PEPTIDE FOR CELL DELIVERY SYSTEMS” (SZEGEDI TUDOMÁNYEGYETEM, priority 2019, published 2022).

Test system: HeLa cells
Test: Cytotoxicity assay by bioimpedance measurement
Format: cell-based, human
Conditions: 10 μM, 24 hours
Description: Kinetics of cell reaction to 7 and 9 peptide treatment was monitored by impedance measurement at 10 kHz (RTCA-SP instrument, ACEA Biosciences, San Diego, Calif., USA). Impedance measurement is non-invasive, label-five and real time, and linearly correlates with adherence, growth, number and viability of cells. For background measurements 50 μL cell culture medium was added to the wells, then HeLa cells were seeded at a density of 6×10^3 cells/well on non-coated 96-well plates with integrated gold electrodes (E-plate 96, ACEA Biosciences). Cells were treated with peptide solutions at 0.1, 0.5, 1, 5 and 10 μM concentrations at the beginning of the plateau phase of growth and the effects were followed for 24 hours. Triton X-100 detergent (1 mg/mL) was used as a reference compound to induce cell death. Cell index was defined as Rn-Rb at each time point of measurement, where Rn is the cell-electrode impedance of the well when it contains cells and Rb is the background impedance of the well with the medium alone.

## NCCCC[C@H](NC(=O)[C@H](Cc1ccc(O)cc1)NC(=O)[C@@H](N)Cc1c[nH]c2ccccc12)C(=O)N[C@@H](Cc1ccc(O)cc1)C(=O)N[C@@H](Cc1c[nH]c2ccccc12)C(N)=O [WYKYW, Trp-Tyr-Lys-Tyr-Trp]
  cytotoxicity: not toxic
